In PubChem BioAssay AID504467 (National Center for Advancing Translational Sciences (NCATS), 2011):
Only a part is listed here, and it is no random draw. Records with an inconclusive call do not appear. A call without a number means that no potency is given here. The source made the active and inactive calls. The call rests on the fitted dose curve; in most records, active means well fitted inhibition curve with a large enough effect; inconclusive means small, poorly fitted or top-dose-only effect, or effect the other way; inactive means flat fitted curve, though single readings scatter.

test: qHTS screen for small molecules that inhibit ELG1-dependent DNA repair in human embryonic kidney (HEK293T) cells expressing luciferase-tagged ELG1; conditions: HEK293T ELG1-luciferase reporter, luminescence, 16 h, DNA damage induced by 5-fluorouridine; series mostly up to 46.1 µM; further: nearly all actives have a fitted effect of over 55% in size
Potency means the concentration at half of the fitted maximal effect.

| Compound | Potency |
| --- | --- |
| Nc1cc(N)c2nonc2c1[N+](=O)[O-] | inactive |
| CC(C)CC(=O)NC(Sc1ccc(Cl)cc1)C(Cl)(Cl)Cl (stereo not given) | inactive |
| O=C(NC(Sc1ccncn1)C(Cl)(Cl)Cl)c1ccccc1 (stereo not given) | inactive |
| COc1ccccc1OP(=O)(Nc1ccc(C)cn1)Oc1ccccc1OC | inactive |
| CN1CCCC(OC(=O)C(c2ccccc2)c2ccccc2)C1 (stereo not given) | inactive |
| Clc1ccc(Cl)c(NC2=NCC(CBr)S2)c1 (stereo not given) | inactive |
| NC(=O)c1cc([N+](=O)[O-])cc([N+](=O)[O-])c1N | inactive |
| Cc1ccc(N/C(=N/P(=O)(N2CCOCC2)N2CCOCC2)N2CCOCC2)cc1 | inactive |
| CN(C(=O)Cc1ccc(Cl)c(Cl)c1)[C@H]1CCCC[C@H]1N1CCCC1 | inactive |
| CCN(N=Nc1nonc1N)c1nonc1N | inactive |
| Nc1cccc2ccc([As](=O)(O)O)cc12 | inactive |
| Cc1ccc(NP(=O)(Oc2ccccc2F)Oc2ccccc2F)nc1 | inactive |
| Cc1cc(SC(NC(=O)c2ccc(F)cc2)C(Cl)(Cl)Cl)ncn1 (stereo not given) | inactive |
| CCOP(=O)(Nc1ccccc1)OCC | inactive |
| CC(=O)Nc1ccc([As](=O)(O)O)cc1 | inactive |
| O=C(O)c1ccccc1[As](=O)(O)O | inactive |
| O=[N+]([O-])c1cccc(NC2=NCC(CBr)S2)c1 (stereo not given) | inactive |
| O=C(O)CNc1ccc([As](=O)(O)O)cc1 | inactive |
| CC(C)(C)C(=O)NC(Sc1ccncn1)C(Cl)(Cl)Cl (stereo not given) | inactive |
| O=[N+]([O-])c1ncn(CCn2ncnc2[N+](=O)[O-])n1 | inactive |
| CC(C)=N/N=C(\N)N[N+](=O)[O-] | inactive |
| Nc1ccc([As](=O)(O)c2ccc(N)cc2)cc1 | inactive |
| CCN(/C(=N/P(=O)(N1CCOCC1)N1CCOCC1)N1CCOCC1)c1ccc(OC)cc1 | inactive |

| Compound | Potency |
| --- | --- |
| O=[N+]([O-])c1cccc2n[nH]nc12 | inactive |
| CC(=O)N1C2C3N(C(C)=O)C1C1N(C(C)=O)C(C(N1C(C)=O)N3C(C)=O)N2C(C)=O | inactive |
| CCc1nc2c(n1)c1c(non1O)c1c2no[n+]1[O-] | inactive |
| O=[N+]([O-])c1cc([N+](=O)[O-])c(CCNc2ccccc2)c([N+](=O)[O-])c1 | inactive |
| Cc1ccc(NP(=O)(Oc2ccccc2)Oc2ccccc2)nc1 | inactive |
| COc1ccc(C2=NCC(CBr)S2)cc1 (stereo not given) | inactive |
| c1nnnn1CCn1cnnn1 | inactive |
| CC(C)C(=O)NC(Sc1ccccc1)C(Cl)(Cl)Cl (stereo not given) | inactive |
| O=P(Nc1nccs1)(c1ccccc1)c1ccccc1 | inactive |
| C(Cc1nn[nH]n1)Cc1nn[nH]n1 | inactive |
| Nc1ccc([As](=O)(O)c2ccc([N+](=O)[O-])cc2)cc1 | inactive |
| O=C(OC1CN2CCC1CC2)c1cccc(Cl)c1 (stereo not given) | inactive |
| O=[N+]([O-])c1ncn(CCn2cnc([N+](=O)[O-])n2)n1 | inactive |
| CC(=O)NC(SC(=S)N(C)C)C(Cl)(Cl)Cl (stereo not given) | inactive |
| O=[As](O)(c1ccccc1)c1ccc(O)cc1 | inactive |
| C[C@H]1OP(=O)(Oc2ccccc2)[C@H](O)[C@H](O)[C@H]1N=[N+]=[N-] (stereo not given in full) | inactive |
| O=P(Nc1nc2ccccc2s1)(c1ccccc1)c1ccccc1 | inactive |
| O=P(Nc1ccccn1)(c1ccc(Br)cc1)c1ccc(Br)cc1 | inactive |
| CN(C)C1(CNC(=O)c2ccc(Cl)c(S(N)(=O)=O)c2)CCCCC1 | inactive |
| CC(NC(=O)COC(=O)C(O)(c1ccccc1)c1ccccc1)c1ccccc1 (stereo not given) | inactive |
| Cc1ccccc1OP(=O)(Nc1ccccn1)Oc1ccccc1C | active: 23.1 µM |
| CC(=O)NC(SC(=S)N(CC(C)C)CC(C)C)C(Cl)(Cl)Cl (stereo not given) | inactive |
| COC(=O)c1cc2c(s1)N=C(c1ccccc1)N(C)P2(=O)N1CCOCC1 (stereo not given) | inactive |

| Compound | Potency |
| --- | --- |
| CCC(=O)N1C2C3N(C(=O)CC)C1C1N(C(=O)CC)C(C(N1C(=O)CC)N3C(=O)CC)N2C(=O)CC | inactive |
| O=C(OC1CN2CCC1CC2)c1ccccc1 (stereo not given) | inactive |
| CCNC(=S)/N=C(\N)N[N+](=O)[O-] | inactive |
| O=C(NC1CCS(=O)(=O)C1)NP(=S)(Oc1ccccc1)Oc1ccccc1 (stereo not given) | inactive |
| CCOC(=O)NC(Sc1ccccc1)C(Cl)(Cl)Cl (stereo not given) | inactive |
| Cc1ccc(NP(=O)(Oc2cccc(C)c2)Oc2cccc(C)c2)nc1 | inactive |
| c1ccc(-c2nn[nH]n2)c(-c2nn[nH]n2)c1 | inactive |
| CC(=O)Nc1ccc(Oc2c([N+](=O)[O-])cc([N+](=O)[O-])cc2[N+](=O)[O-])cc1 | inactive |
| CC(=O)Nc1ccc([As](=O)(O)O)c(O)c1 | inactive |
| CC(=O)c1ccc(N2CC2c2ccncc2)cc1 (stereo not given) | inactive |
| C[C@H]1OP(=O)(Oc2ccccc2)C[C@@H]2O[C@@H]21 (stereo not given in full) | inactive |
| C[C@@H]1C=CCP(=O)(Oc2ccccc2)O1 (stereo not given in full) | inactive |
| Cc1ccccc1CN(C)C(=O)COC(=O)C(O)(c1ccccc1)c1ccccc1 | inactive |
| CC(C)(C)C(=O)NC(Sc1ccccc1)C(Cl)(Cl)Cl (stereo not given) | inactive |
| CCOc1ccc(C2=NCC(CBr)S2)cc1 (stereo not given) | inactive |
| CCOP(=O)(Nc1cccc2ccccc12)OCC | inactive |
| COc1cc(C2NCCC3(OCCO3)C2(C)C)cc(OC)c1OC (stereo not given) | inactive |
| CCCOP(=S)(Nc1nc(N)cc(=O)[nH]1)OCCC | inactive |
| Nc1cccc2c([As](=O)(O)O)cccc12 | inactive |
| Cc1ccc(NCCc2c([N+](=O)[O-])cc([N+](=O)[O-])cc2[N+](=O)[O-])cc1 | inactive |
| O=[As](O)(c1cccc(O)c1)c1cccc(O)c1 | inactive |
| CS(=O)(=O)c1ccc(Cl)c(NC(=O)COC(=O)C(O)(c2ccccc2)c2ccccc2)c1 | inactive |
| O=[As](O)(O)c1cccnc1 | inactive |

| Compound | Potency |
| --- | --- |
| CN(C(=O)Cc1ccccc1)[C@@H]1CC[C@]2(CCCO2)C[C@H]1N1CCCC1 | inactive |
| CCOP1(=S)c2c(C)nn(CCC#N)c2N=C(c2ccc(F)cc2)N1C (stereo not given) | inactive |
| N#CCCN(C(=O)COC(=O)C(O)(c1ccccc1)c1ccccc1)c1ccc(F)cc1 | inactive |
| NC(=O)Nc1ccc([As](=O)(O)O)cc1 | inactive |
| Nc1ccccc1[As](=O)(O)c1ccccc1 | inactive |
| O=C(O)COc1ccc([As](=O)(O)O)cc1[N+](=O)[O-] | inactive |
| CS(=O)(=O)c1cc([N+](=O)[O-])c2no[n+]([O-])c2c1 | inactive |
| O=P(Nc1nccs1)(Oc1ccccc1)Oc1ccccc1 | inactive |
| O=P(Nc1nccs1)(c1ccccc1)c1nc2ccccc2s1 (stereo not given) | inactive |
| CCOP1(=S)c2c(C)nn(CCC#N)c2N=C(c2ccccc2F)N1C (stereo not given) | inactive |
| Cc1ccc(OCC(=O)OC2CN3CCC2CC3)cc1 (stereo not given) | inactive |
| O=P1(Nc2ccc(Br)cn2)COc2ccccc2OC1 | inactive |
| NS(=O)(=O)c1cccc(NC(=O)COC(=O)C(O)(c2ccccc2)c2ccccc2)c1 | inactive |
| Nc1cccc([As](=O)(O)c2ccccc2)c1 | inactive |
| O=C(/C=C/c1ccccc1)OC1CN2CCC1CC2 (stereo not given) | inactive |
| CN(C)C1(CNC(=O)c2ccc(S(C)(=O)=O)cc2)CCCCC1 | inactive |
| Cc1nn(-c2ccccc2)c2c1P(=O)(N1CCOCC1)N(C)C(c1ccccc1)=N2 (stereo not given) | inactive |
| O=[As](O)(c1ccccc1Br)c1ccccc1Br | inactive |
| CC(C)/C=N\N=C(\N)N[N+](=O)[O-] | inactive |
| COc1ccccc1CNC(=O)COC(=O)C(O)(c1ccccc1)c1ccccc1 | inactive |
| CC(C)(C)C(=O)NC(Sc1ncccn1)C(Cl)(Cl)Cl (stereo not given) | inactive |
| Clc1n[nH]nc1-c1nn[nH][15n]1 | inactive |
| CCOP(=O)(Nc1ccc(C)cn1)OCC | inactive |

| Compound | Potency |
| --- | --- |
| CCOP(=O)(NC(=NC(C)c1ccccc1)NC(C)c1ccccc1)OCC (stereo not given) | inactive |
| O=P1(Nc2ccccn2)COc2ccccc2OC1 | inactive |
| CCC1=CC2Cc3nc4ccc(Cl)cc4c(N)c3C(C1)C2 (stereo not given) | active: 10 µM |
| CCC(C)N(CC(C)C)C(=S)SC(NC(C)=O)C(Cl)(Cl)Cl (stereo not given) | inactive |
| COP1(=S)c2c(C)nn(CCC#N)c2N=C(c2ccc(F)cc2)N1C (stereo not given) | inactive |
| O=[N+]([O-])c1ccc(Nc2ccc(Oc3ccc([N+](=O)[O-])cc3[N+](=O)[O-])cc2)c([N+](=O)[O-])c1 | inactive |
| O=P(Nc1ccccn1)(c1cccc2ccccc12)c1cccc2ccccc12 | inactive |
| Cc1cc(SC(NC=O)C(Cl)(Cl)Cl)ncn1 (stereo not given) | inactive |
| CCOC(=O)Nc1cccc([As](=O)(O)O)c1 | inactive |
| Cc1cc(SC(NC(=O)c2ccccc2)C(Cl)(Cl)Cl)nc(C(C)C)n1 (stereo not given) | inactive |
| CCCCOc1ccc(C(=O)NCC2(N3CCCCC3)CCCCC2)cc1OC | inactive |
| CCOC(=O)Nc1ccc([As](=O)(O)O)c(O)c1 | inactive |
| O=[N+]([O-])c1cc([N+](=O)[O-])c(-c2ccn[nH]2)s1 | inactive |
| CC(C)NC(=O)NP(=O)(Oc1ccccc1)Oc1ccccc1 | inactive |
| CCN(CC)C(=S)SC(NC=O)C(Cl)(Cl)Cl (stereo not given) | inactive |
| Cc1ccc(OP(=O)(Nc2ccc([N+](=O)[O-])cn2)Oc2ccc(C)cc2)cc1 | inactive |
| COc1cc(C(=O)NCC2(N3CCOCC3)CCCCC2)ccc1OCC(C)C | inactive |
| O=[As](O)(c1ccc(O)cc1)c1ccccc1O | inactive |
| C[As](=O)(O)c1cccc(C(=O)O)c1 | inactive |
| COc1ccc(N/C(=N/P(=O)(N2CCOCC2)N2CCOCC2)N2CCOCC2)cc1 | inactive |
| COc1cc(I)ccc1[As](=O)(O)O | inactive |
| O=C(OC1CN2CCC1CC2)C12CC3CC(CC(C3)C1)C2 (stereo not given) | inactive |
| Cc1c2c(nc3ccccc13)SC(C(Cl)Cl)C2 (stereo not given) | inactive |
